Data taken from patent US12678418B2, “Compositions and methods for the treatment of threatened respiratory failure caused by coronavirus infection and disease” (ENCYT TECHNOLOGIES, INC., priority 2020, dated 2026).
Where two headings read alike, the source gives them in different places.

What was measured:
Neu1 sialidase [1] = target: T1, Neu1 sialidase (Mus musculus, UniProt O35657); assay: cell-based
T1 construct: […]; endogenous in cells; host or cells: BMC-2 macrophage cells
Source text: Central to this process is that Neu1 and not Neu2,-3 and -4 forms a complex with TLR-2,-3 and -4 on the cell surface of naïve macrophage cells. […] Endotoxin LPS binding to TLR4 induces Neu1 with subsequent activation of NFκB and the production of nitric oxide and proinflammatory IL-6 and TNFα cytokines in primary and macrophage cell lines.

Neu1 sialidase [2] = target: T1, Neu1 sialidase; conditions: read-out: IC50, inhibition of LPS-induced sialidase activity; live BMC-2 cells; Amith, Jayanth et al. 2009; cited from earlier work

Q: Which IC50 (Neu1 sialidase [1]) does the source give for `CCOC(=O)C1=C[C@@H](OC(CC)CC)[C@H](NC(C)=O)[C@@H](N)C1.O=P(O)(O)O` [OP, (3R,4R,5S)-4-acetylamino-5-amino-3-(1-ethylpropoxy)1-cyclohexene-1-carboxylic acid, ethyl ester, phosphate (1:1)] here?
A: 1.17 µM

Q: And the “potency relative to hydrolytic metabolite oseltamivir carboxylate in inhibiting sialidase activity” value (Neu1 sialidase [1]; TLR ligand treated live BMC-2 macrophage cells)?
A: 1000 fold

Q: And the IC50 (Neu1 sialidase [2])?
A: 1.2 µM
